Reference: patent publication US20250163119A1, “COMPOUNDS FOR THE TREATMENT OF DIABETES OR OBESITY” (Eli Lilly and Company, priority 2023, published 2025)

What was measured:
Assay type in all cases: cell-based
human CRHR2 = biological target: T1, human CRHR2 (Homo sapiens, UniProt Q13324); test: Human CRHR2 cAMP assay (HTRF) in HEK293 cells stably expressing human CRHR2; conditions: HEK293 cells overexpressing human CRHR2; relative EC50, maximum 10 nM human UCN2; mean ± SE; read-out: hCRHR2 cAMP EC50 (pM, ± SE)
T1 construct: expressed in transfected cells
T1 sequence (Q13324 1-438 isoform Q13324-2): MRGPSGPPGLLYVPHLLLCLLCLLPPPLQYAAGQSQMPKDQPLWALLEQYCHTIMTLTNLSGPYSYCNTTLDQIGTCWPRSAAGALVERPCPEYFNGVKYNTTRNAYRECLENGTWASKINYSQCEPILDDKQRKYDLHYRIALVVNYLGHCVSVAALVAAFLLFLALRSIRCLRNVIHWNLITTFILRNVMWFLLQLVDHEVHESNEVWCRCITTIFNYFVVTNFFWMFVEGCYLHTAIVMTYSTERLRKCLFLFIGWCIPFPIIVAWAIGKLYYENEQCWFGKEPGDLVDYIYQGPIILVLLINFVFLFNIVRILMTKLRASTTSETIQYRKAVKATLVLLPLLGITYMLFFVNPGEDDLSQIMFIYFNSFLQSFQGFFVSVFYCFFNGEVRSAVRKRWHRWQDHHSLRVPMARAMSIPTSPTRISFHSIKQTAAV
Protocol: (§1) The corticotropin-releasing hormone (CRH) receptor 1 and 2 (CRHR1 and CRHR2) are GPCRs that were functionally coupled to Gs proteins. Stimulation of these receptors results in an increased production of intracellular cAMP, which can be detected using standard in vitro technologies. In vitro activity of peptides was measured by the amount of cAMP formed in human CRHR1 and CRHR2 overexpressed cells.
(§2) Human CRHR1 and CRHR2 receptors were stably expressed in human embryonic kidney cells (HEK293) under control of a pcDNA expression vector. The HEK293 cell line was cultured in DMEM 1× (Gibco, 93-0152DK) supplemented with 10% FBS, 1 mM sodium pyruvate, 1×MEM NEAA, 1× GlutaMAX and 10 mM HEPES. […] After 20 days under selection, the mRNA levels from different clones were measured to confirm the expression of human CRHR1 and CRHR2 genes. To determine the function of over-expressed CRHR cells, the intracellular cAMP levels in response to human UCN1 and UCN2 were measured and compared to the expression of CRHR1 and CRHR2 mRNA in each clone. […]
(§3) The amount of intracellular cAMP was quantitated using HTRF technology (Homogeneous Time Resolved Fluorescence; Cisbio) as per vendor instructions. […] The HTRF signal was immediately detected using an Envision plate reader (Perkin-Elmer) to calculate the ratio of fluorescence at 665 to 620 nm. […]

human CRHR1 = biological target: T2, human CRHR1 (Homo sapiens, UniProt P34998); test: Human CRHR1 cAMP assay (HTRF) in HEK293 cells stably expressing human CRHR1; conditions: HEK293 cells overexpressing human CRHR1; relative EC50, maximum 66 nM human UCN1; mean ± SE; read-out: hCRHR1 cAMP EC50 (pM, ± SE)
T2 construct: expressed in transfected cells
T2 sequence (P34998 24-415): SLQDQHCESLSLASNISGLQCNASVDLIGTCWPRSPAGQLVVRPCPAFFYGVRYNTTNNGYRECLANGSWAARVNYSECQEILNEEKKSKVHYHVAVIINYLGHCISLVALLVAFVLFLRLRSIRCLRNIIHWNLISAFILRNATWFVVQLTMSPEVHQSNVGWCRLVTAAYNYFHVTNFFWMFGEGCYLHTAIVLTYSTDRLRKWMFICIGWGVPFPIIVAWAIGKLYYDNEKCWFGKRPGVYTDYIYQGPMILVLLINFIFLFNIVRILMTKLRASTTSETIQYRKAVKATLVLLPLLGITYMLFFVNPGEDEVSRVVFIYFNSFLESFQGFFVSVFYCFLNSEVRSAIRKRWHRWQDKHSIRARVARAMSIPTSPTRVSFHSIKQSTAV
Protocol: as §1, §2, §3

[1] = biological target: T3, CRHR1 receptor (Y79 cells) (Homo sapiens, UniProt P34998); test: Human Y79 cAMP assay (native cell line expressing endogenous CRHR1); conditions: human Y79 cells (CRHR1, no detectable CRHR2); mean ± SE
T3 construct: host or cells: Y79 human retinoblastoma cells
T3 sequence (P34998 24-415): T2 sequence (P34998 24-415)
Protocol: Y79 cells, a human retinoblastoma cell line, express a high level of human CRHR1 with no detectable CRHR2. A7r5 cells, a rat aortic smooth muscle cell line, only express CRHR2 receptor with no detectable CRHR1. The rat CRHR2 gene shares 93% homology of nucleotides sequences with human CRHR2 and responds to human UCN2. Therefore, these two native cell lines were used for additional characterization of polypeptide selectivity.
Y79 cells were grown in a suspension culture as recommended by ATCC in the media containing RPMI (Gibco Cat #11875093) and 20% FBS (Gibco dialyzed Cat #26400044). Y79 cells were incubated at 37° C. with 5% CO2. A subcultivation was performed by removing the supernatant after centrifugation and suspending the cell pellet in fresh medium (A subcultivation ratio was 1:5). […]
as §3
Raw fluorescence data for concentration curves of the peptides in Table 2 and Table 3 were converted to cAMP amount (pmol/well) using a cAMP standard curve generated for each experiment.

EC50 (human CRHR2): 24.5 ± 1.6 pM | EC50 (human CRHR1): > 1e+07 pM | EC50 [1]: > 1e+07 pM
Structure (SMILES): CC[C@H](C)[C@H](N)C(=O)N[C@H](C(=O)N[C@@H](CC(C)C)C(=O)N[C@@H](CO)C(=O)N[C@@H](CC(C)C)C(=O)N[C@@H](CC(=O)O)C(=O)N[C@H](C(=O)N1CCC[C@H]1C(=O)N[C@H](C(=O)NCC(=O)N[C@@H](CC(C)C)C(=O)N[C@@H](CC(C)C)C(=O)N[C@@H](CCC(N)=O)C(=O)N[C@H](C(=O)N[C@@H](CC(C)C)C(=O)N[C@@H](CC(C)C)C(=O)N[C@@H](CCC(=O)O)C(=O)N[C@@H](CCC(N)=O)C(=O)N[C@@H](C)C(=O)N[C@@H](CCCNC(=N)N)C(=O)N[C@@H](C)C(=O)N[C@@H](CCCNC(=N)N)C(=O)N[C@@H](C)C(=O)N[C@@H](C)C(=O)N[C@@H](CCCNC(=N)N)C(=O)N[C@@H](CCC(=O)O)C(=O)N[C@@H](CCC(N)=O)C(=O)N[C@@H](C)C(=O)N[C@H](C(=O)N[C@H](C(=O)N[C@@H](CC(N)=O)C(=O)N[C@@H](C)C(=O)N[C@@H](CCCNC(=N)N)C(=O)N[C@H](C(=O)N[C@@H](CC(C)C)C(=O)N[C@@H](C)C(=O)N[C@@H](CCCNC(=N)N)C(=O)N[C@H](C(N)=O)C(C)C)[C@@H](C)CC)[C@@H](C)O)[C@@H](C)O)[C@@H](C)CC)[C@@H](C)CC)C(C)C)C(C)C [SEQ ID NO: 53, reference compound]
